Experimental data as given in US20240043531A1, “ANTI-CD47 MONOCLONAL ANTIBODY AND USE THEREOF” (Akeso Biopharma, Inc., priority 2021, published 2024).

Tested on: HT-29 cells
Test: ADCP: phagocytosis of HT-29 cells by HPMMs, combination with cetuximab
Assay type: cell-based, human
Conditions: HPMMs effector, HT29 target cells, 37° C. 2 h; FIG. 7
Method: PBMCs (prepared by Akeso Biopharma, Inc., Lot No: 20200521-E) were thawed and incubated with 1640 complete medium+10% FBS (Excell bio, Cat. No: FSP500, Lot No: 11I025) overnight. The next day, the medium was changed to 1640 complete medium+2% FBS, and the cells were incubated with the medium for 2 h. The supernatant was removed, and the cells were washed twice with PBS and incubated in an incubator (90% 1640+10% FBS+M-CSF-100 ng/mL) to induce adult human macrophages (HPMMs, prepared by Akeso Biopharma, Inc.). The medium was exchanged and the treatment was given on days 3 and 5. The experiment was performed on day 7 of induction.
HT-29 cells (Chinese Academy of Sciences, Shanghai Institutes for Biological Sciences Cell Center, Cat. No: TCHu103) were conventionally collected, centrifuged at 170×g for 5 min, resuspended and then counted. Then the cells were analyzed for viability and washed once with PBS. […] 1 mL of 1640 complete medium was added, and the cells were incubated in an incubator for 10 min, resuspended and counted. […]
6F7H1L1(hG4) and cetuximab (prepared by Akeso Biopharma, Inc., Lot No: 20200917) were diluted to the desired concentrations with 1640 complete medium, and an isotype control antibody group was set. […] The cells were counted, transferred to 1.5 mL EP tubes and centrifuged at 1200×g for 5 min, and the supernatant was discarded. […]

cetuximab: anti-human EGFR antibody, prepared by Akeso Biopharma, Inc.
phagocytic index (ADCP): significantly higher than those of the blank control and the isotype control (human IgG4)
